{"source": "patent US20200216463A1", "about": "“THAILANSTATIN ANALOGS” (priority 2017, published 2020)", "tested_on": "NCI-N87 human gastric cancer xenografts", "experiment": "In vivo efficacy, subcutaneous NCI-N87 xenograft, tumor volume", "set-up": "species or system female Balb/c nude mice", "details": "all dose levels and schedules of the substance (Groups 2-8)"}
{"substance": "ado-trastuzumab emtansine [Kadcyla]", "values": [{"measurement": "Effect on tumor volume subsequent to treatment (in words)", "result": "reduced tumor volume"}]}
